Only a part is listed here, and it is no random draw. Calls of active or inactive are those of the source. Calls come from the whole dose curve; as a rule, active = well fitted cell-killing curve with a large enough effect; inactive = no such curve, though single readings can be large or run the other way.

The assay can be described thus: qHTS for Inhibitors of TGF-b: Cytotox Counterscreen. The settings on record: HepG2 CAGA-GFP viability, ATP luminescence, 18 h; at 46.1 µM (top of the series). From the text: TGF-b is a main component in the TGF-b signaling pathway which plays diverse roles in cellular and development pathways. TGF-b is mediated by transcription factors called "Smads". Although the Smad-dependent pathway is the primary canonical TGF-b signaling mode, TGF-b1 can also activate alternative signaling pathways, including those involving MAPK (ERK, JNK and p38). This interaction may mediate or enhance Smad-dependent responses, or can exert Smad-independent effects. The complexity of this signaling cascade allows the TGF-b superfamily to perform unique, overlapping or redundant functions. We believe that targeting the TGF-beta pathway at the Smad-transcription factor level may eliminate the consequences of disrupting the entire pathway and offer specificity without affecting other signaling pathways. Smad3 is the primary transducer of TGF-b's signals and Smad3 regulates many functions attributed to TGF-b signaling. We hypothesize that Smad3 inhibitors will selectively eliminate Smad3-specific TGF-beta signals without undesired off-target effects. We aim to identify Smad3-small molecule antagonists using a quantitative high throughput screening (qHTS) approach.
A high-throughput assay was developed to screen the NIH Molecular Libraries Small Molecule Repository (MLSMR). This is a cell based assay, where TGF-b is tagged with GFP. This is a counterscreen that evaluates the cytotoxicity of the compounds that were screened in the primary cell-based screen (AID 588855).
MH087449NIH Chemical Genomics Center [NCGC]
NIH Molecular Libraries Probe Centers Network [MLPCN]
Assay Submitter (PI): Sushil Rane, National Institute of […]
Suspensions of trypsinized HEPG2 CAGA-GFP cells were dispensed into white, tissue culture-treated, solid 1536-well plates at 5uL/well (1000 cells/well final concentration) in DMEM medium supplemented with 1% FBS. Plates were incubated at 37 degrees C for 2 hours, after which 23 nL of compounds or DMSO were delivered to each well using a pin tool. One uL of recombinant TGF-beta in DMEM (1% FBS) was then dispensed (500 pg/mL final concentration), and plates were incubated at 37 degrees C for 18 hours. Two uL of CellTiter Glo (Promega), a luminescence-based viability reagent, was dispensed, followed by a 10 minute room temperature incubation. The plates were then measured on a PerkinElmer ViewLux plate reader for luminescence (clear filter) using a 5 second exposure. The %Activity was determined from the corrected luminescence values. Wells containing media only (no cells) were used to normalize %Activity of identified toxic compounds; media-only wells corresponded to 100%Activity (complete cell-killing), while DMSO-dosed cell controls were used to normalize 0%Activity (no toxicity).
Concentration-response curves were fitted to the signals arising from the resulting luminescence. The concentration-effect curves were then classified based on curve quality (r2), response magnitude and degree of measured activity, and compounds were subsequently categorized based on their curve class.
For orientation: In qHTS, concentration-response curves come from the screen itself.
Take `O=c1[nH]c2ccccc2n1C1CCN(C(c2cccs2)c2nnnn2C2CCCC2)CC1` (configuration not stated): the activity change, negative = cytotoxicity was inactive: 5.58%.

As to `CCCCn1nnnc1C(c1cccc(OC)c1OC)N1CCC(n2c(=O)[nH]c3ccccc32)CC1` (configuration not stated), the activity change, negative = cytotoxicity was inactive: -14.5%.

Regarding `CCOc1ncccc1C(=O)NCC1(N2CCOCC2)CCCCC1`, the activity change, negative = cytotoxicity was inactive: 3.05%.

For the molecule `CN1CCC(Nc2ccc(F)c(Cl)c2)CC1`, the activity change, negative = cytotoxicity is inactive: -14.7%.

For `CC(C)(C)OC(=O)N1CCC(Nc2ccccc2)CC1`, the activity change, negative = cytotoxicity was inactive: -20.3%.

As for `ClCCN(CCCl)c1ccc(C=C2C=CC=C2)cc1`, the activity change, negative = cytotoxicity is inactive: -0.571%.

On to `O=C(O)C1(Nc2ccccc2)CCN(Cc2ccccc2)CC1`, for which the activity change, negative = cytotoxicity was inactive: -11.3%.

For `ClCCN(CCCl)c1ccccc1`, the activity change, negative = cytotoxicity is inactive: 5.85%.

With `CCCOc1ccc(C(=O)NCC2(N(C)C)CCCCC2)cc1`, the activity change, negative = cytotoxicity is inactive: -17.5%.

For the molecule `O=c1[nH]c2ccccc2n1C1CCN(C(c2cc3ccccc3o2)c2nnnn2C2CCCC2)CC1` (configuration not stated), the activity change, negative = cytotoxicity is inactive: -26.2%.

In the case of `COc1cccc(C(=O)N(c2cc(C)cc(C)c2)C2CCN(C(=O)OC(C)(C)C)CC2)c1`, the activity change, negative = cytotoxicity was inactive: 0.389%.

Turning to `COc1cccc(C(c2nnnn2C2CCCC2)N2CCC(n3c(=O)[nH]c4ccccc43)CC2)c1OC` (configuration not stated), the activity change, negative = cytotoxicity is inactive: -2.1%.

Take `COc1cc(OC)cc(C(=O)NCC2(N3CCOCC3)CCCCC2)c1`: the activity change, negative = cytotoxicity was inactive: 6.15%.

With `COc1cc(C(=O)NCC2(N3CCOCC3)CCCCC2)cc(OC)c1OC`, the activity change, negative = cytotoxicity was inactive: -4.11%.

For the molecule `CCC(CO)(C(=O)OC1CN2CCC1CC2)c1ccccc1` (configuration not stated), the activity change, negative = cytotoxicity was inactive: -56.5%.

Turning to `CN1CCC(Nc2ccc(Cl)cc2)CC1`, the activity change, negative = cytotoxicity is inactive: 3.5%.

`CC(=O)N(c1ccccc1)C1CCNCC1`: the activity change, negative = cytotoxicity is inactive: -2.2%.

Turning to `COc1cccc(C(c2nnnn2C2CCCCC2)N2CCC(n3c(=O)[nH]c4ccccc43)CC2)c1OC` (configuration not stated), the activity change, negative = cytotoxicity was inactive: 5.01%.

For `CN(C)C1(CNC(=O)c2ccc(C(C)(C)C)cc2)CCCCC1`, the activity change, negative = cytotoxicity is inactive: -16%.

Consider `CCC(c1nnnn1C1CCCCC1)N1CCC(n2c(=O)[nH]c3ccccc32)CC1` (configuration not stated), for which the activity change, negative = cytotoxicity was inactive: -0.453%.

In the case of `O=c1[nH]c2ccccc2n1C1CCN(C(c2ccnc3ccccc23)c2nnnn2C2CCCCC2)CC1` (configuration not stated), the activity change, negative = cytotoxicity is inactive: 3.97%.

As for `COc1cc(OC)cc(C(=O)NCC2(N3CCCCC3)CCCCC2)c1`, the activity change, negative = cytotoxicity is inactive: -12.4%.

For the molecule `Cc1ccc(C(=O)NCC2(N3CCCCC3)CCCCC2)o1`, the activity change, negative = cytotoxicity is inactive: -1.97%.

Consider `Cc1ccc(Nc2c([N+](=O)[O-])cc([N+](=O)[O-])cc2[N+](=O)[O-])cc1`, for which the activity change, negative = cytotoxicity is inactive: -117%.

Regarding `Fc1ccccc1NC1CCN(Cc2ccccc2)CC1`, the activity change, negative = cytotoxicity was inactive: 23.4%.

As to `Cc1ccc(NC2(C#N)CCN(Cc3ccccc3)CC2)cc1`, the activity change, negative = cytotoxicity was inactive: -5.09%.

Turning to `Cc1ccccc1NC1(C#N)CCN(Cc2ccccc2)CC1`, the activity change, negative = cytotoxicity is inactive: 9.29%.

For the molecule `CC(C)(C)n1nnnc1C(c1ccnc2ccccc12)N1CCC(n2c(=O)[nH]c3ccccc32)CC1` (configuration not stated), the activity change, negative = cytotoxicity was inactive: -3.14%.

Take `CCN1CCC(Nc2cccc(F)c2)CC1`: the activity change, negative = cytotoxicity was inactive: 12.6%.

`COc1ccc(C(c2nnnn2C2CCCCC2)N2CCC(n3c(=O)[nH]c4ccccc43)CC2)cc1` (configuration not stated): the activity change, negative = cytotoxicity is inactive: -4.76%.

Turning to `Cc1ccccc1C(=O)NCC1(N(C)C)CCCCC1`, the activity change, negative = cytotoxicity was inactive: -5.54%.

In the case of `CC(C)(C)c1ccc(C(=O)NCC2(N3CCOCC3)CCCCC2)cc1`, the activity change, negative = cytotoxicity is inactive: -25.5%.

As to `O=C(NCC1(N2CCCCC2)CCCCC1)c1ccco1`, the activity change, negative = cytotoxicity was inactive: 5.85%.

On to `Cn1c(=O)[nH]cc(N(CCCl)CCCl)c1=O`, for which the activity change, negative = cytotoxicity is inactive: -0.876%.

For `CN(C)c1ccc(C(=O)NCC2(N3CCCCC3)CCCCC2)cc1`, the activity change, negative = cytotoxicity was inactive: -30.9%.

With `CC(C)(C)n1nnnc1C(c1ccccc1)N1CCC(n2c(=O)[nH]c3ccccc32)CC1` (configuration not stated), the activity change, negative = cytotoxicity is inactive: 3.36%.

On to `O=C(NCC1(N2CCOCC2)CCCCC1)c1ccc(Cl)cc1`, for which the activity change, negative = cytotoxicity is inactive: -9.88%.

For `O=C1CCN(Cc2ccccc2)CC1`, the activity change, negative = cytotoxicity is inactive: -3.84%.

Turning to `CCOc1ccc(C)cc1CN(CCCl)CCCl`, the activity change, negative = cytotoxicity was inactive: -12.5%.

In the case of `COc1ccccc1C(=O)NCC1(N2CCOCC2)CCCCC1`, the activity change, negative = cytotoxicity is inactive: -13.2%.

Take `O=C(NCC1(N2CCCCC2)CCCCC1)c1ccc(F)cc1`: the activity change, negative = cytotoxicity was inactive: -76.3%.

With `CCCCOc1ccc(C(=O)NCC2(N3CCOCC3)CCCCC2)cc1`, the activity change, negative = cytotoxicity is inactive: -19.2%.

Regarding `O=P1(N(CCCl)CCCl)SCCCS1`, the activity change, negative = cytotoxicity was inactive: 5.95%.

`CCCCn1nnnc1C(c1cc2ccccc2o1)N1CCC(n2c(=O)[nH]c3ccccc32)CC1` (configuration not stated): the activity change, negative = cytotoxicity is inactive: -2.72%.

Turning to `CCOC(=O)N1CCC(Nc2ccc(F)cc2)CC1`, the activity change, negative = cytotoxicity is inactive: 6.65%.

In the case of `COc1ccc(NC2CCN(CCc3ccccc3)CC2)c(OC)c1`, the activity change, negative = cytotoxicity is inactive: -18.3%.

For `O=c1[nH]c2ccccc2n1C1CCN(C(c2ccccc2)c2nnnn2C2CCCCC2)CC1` (configuration not stated), the activity change, negative = cytotoxicity is inactive: 0.764%.

In the case of `COc1cc(C(=O)NCC2(N(C)C)CCCCC2)ccc1OC(F)F`, the activity change, negative = cytotoxicity was inactive: -17.1%.

On to `CCOC(=O)N1CCC(Nc2cccc(C)c2)CC1`, for which the activity change, negative = cytotoxicity was inactive: -19.7%.

`O=c1[nH]c2ccccc2n1C1CCN(C(c2cccc3ccccc23)c2nnnn2C2CCCC2)CC1` (configuration not stated): the activity change, negative = cytotoxicity was inactive: -0.587%.

In the case of `COc1ccc(C(=O)NCC2(N3CCCCC3)CCCCC2)cc1`, the activity change, negative = cytotoxicity is inactive: -4.89%.

On to `CCC(c1nnnn1C1CCCC1)N1CCC(n2c(=O)[nH]c3ccccc32)CC1` (configuration not stated), for which the activity change, negative = cytotoxicity is inactive: -0.879%.

The values above are taken from PubChem BioAssay AID588856 (National Center for Advancing Translational Sciences (NCATS), 2011).
